PubChem BioAssay AID493036 (Sanford-Burnham Center for Chemical Genomics, 2011)
This is a selection; strong and weak results do not stand in their true shares. Calls of active or inactive are those of the source.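 The calls were made as follows: active = activation at or above 40% of the spot to cytoplasm intensity ratio, with at least 20 cells analyzed; inconclusive = wells under 20 cells, flagged as cytotoxic or low count; inactive = the rest.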

Protein sequences, listed by entry. Tags and fused reporters are not part of them.
UniProt P30989, whole entry: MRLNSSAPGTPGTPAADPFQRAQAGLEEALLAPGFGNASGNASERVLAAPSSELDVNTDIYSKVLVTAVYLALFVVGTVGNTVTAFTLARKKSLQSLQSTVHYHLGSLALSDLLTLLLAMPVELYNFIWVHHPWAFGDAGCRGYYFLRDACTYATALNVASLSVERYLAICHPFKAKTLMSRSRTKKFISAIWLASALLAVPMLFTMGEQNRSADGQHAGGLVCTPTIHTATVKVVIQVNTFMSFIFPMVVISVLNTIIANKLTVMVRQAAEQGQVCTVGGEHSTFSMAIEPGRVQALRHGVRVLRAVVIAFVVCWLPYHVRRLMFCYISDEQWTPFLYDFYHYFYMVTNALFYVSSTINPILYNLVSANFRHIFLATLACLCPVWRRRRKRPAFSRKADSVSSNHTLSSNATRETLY

What follows are compounds tested against Neurotensin receptor type 1 (Homo sapiens) (UniProt P30989) (assay: agonists of NTR1, primary screen, imaging, U2OS cells, beta-arrestin-GFP, high content (AID 493036;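 also: 0% = DMSO without peptide and 100% = 100 nM NTR1 peptide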) (AID 493036)). Settings: NTR1-U2OS beta-arrestin-GFP spot imaging, agonist mode; at 20 µM; active compounds read high.
With `CCC(CO)(C(=O)OC1CN2CCC1CC2)c1ccccc1` (configuration not stated) the activation was inactive: -1.1%.
In the case of `COc1cc(OC)cc(C(=O)NCC2(N3CCOCC3)CCCCC2)c1`, the activation is reported as inactive: 0.5%.
For `COc1cccc(C(=O)N(c2cc(C)cc(C)c2)C2CCN(C(=O)OC(C)(C)C)CC2)c1`, the activation was inactive: 2.7%.
For `CCCOc1ccc(C)cc1CN(CCCl)CCCl`, the activation was inactive: 0.8%.
With `CN1CCC(Nc2ccc(Cl)cc2)CC1` the activation was inactive: -1.9%.
In the case of `CN1CCC(Nc2ccc(F)c(Cl)c2)CC1`, the activation is reported as inactive: -1%.
In the case of `CCOc1ncccc1C(=O)NCC1(N2CCOCC2)CCCCC1`, the activation is reported as inactive: 4.4%.
In the case of `CCCOc1ccc(C(=O)NCC2(N(C)C)CCCCC2)cc1`, the activation is reported as inactive: -0.9%.
For `O=C(O)C1(Nc2ccccc2)CCN(Cc2ccccc2)CC1`, the activation was inactive: -0.9%.
`CC(C)(C)OC(=O)N1CCC(Nc2ccccc2)CC1` was tested, and the activation was inactive: 0.5%.
With `CCN1CCC(Nc2cccc(F)c2)CC1` the activation was inactive: -0.7%.
In the case of `CN(C)c1ccc(C(=O)NCC2(N3CCCCC3)CCCCC2)cc1`, the activation is reported as inactive: 0.8%.
With `O=C(NCC1(N2CCCCC2)CCCCC1)c1ccco1` the activation was inactive: -0.7%.
`COc1cc(OC)cc(C(=O)NCC2(N3CCCCC3)CCCCC2)c1` was tested, and the activation was inactive: -0.7%.
`Fc1ccccc1NC1CCN(Cc2ccccc2)CC1` was tested, and the activation was inactive: -1.7%.
For `Cc1ccc(C(=O)NCC2(N3CCCCC3)CCCCC2)o1`, the activation was inactive: 0.1%.
In the case of `CCCN1CCC(Nc2cc(OC)cc(OC)c2)CC1`, the activation is reported as inactive: 2.5%.
`c1ccc(CN2CCC(Nc3ccccc3)CC2)cc1` was tested, and the activation was inactive: -0.1%.
`CN(C)C1(CNC(=O)c2cccc(C#N)c2)CCCCC1` was tested, and the activation was inactive: 0.5%.
`CC(C)(C)OC(=O)N1CCC(N(C(=O)c2ccccc2)c2ccc(Cl)cc2)CC1` was tested, and the activation was inactive: 3.4%.
With `N#Cc1ccc(C(=O)NCC2(N3CCCCC3)CCCCC2)cc1` the activation was inactive: -1.7%.
In the case of `N/C(=N\O)c1c(N)no[n+]1[O-]`, the activation is reported as inactive: -1.2%.
In the case of `CCOC(=O)N1CCC(Nc2ccc(C)cc2)CC1`, the activation is reported as inactive: -1.1%.
`O=C(OC1CN2CCC1CC2)C1c2ccccc2C=Cc2ccccc21` (configuration not stated) was tested, and the activation was inactive: 0%.
`CCc1cc(C(=O)NCC2(N3CCCCC3)CCCCC2)sc1C` was tested, and the activation was inactive: 0.8%.
In the case of `O=C(NCC1(N2CCOCC2)CCCCC1)c1cc(Br)ccc1Cl`, the activation is reported as inactive: 1.6%.
For `COc1cc(C(=O)NCC2(N3CCOCC3)CCCCC2)cc(OC)c1C`, the activation was inactive: -0.9%.
`COc1ccc(C(=O)NCC2(N3CCOCC3)CCCCC2)cc1OC` was tested, and the activation was inactive: -0.1%.
In the case of `O=C(NCC1(N2CCCCC2)CCCCC1)c1cncc(Br)c1`, the activation is reported as inactive: -1.2%.
For `CN1CCC(Nc2cccc(F)c2)CC1`, the activation was inactive: -1.1%.
In the case of `CN(C)c1cccc(C(=O)NCC2(N3CCCCC3)CCCCC2)c1`, the activation is reported as inactive: 0.4%.
`COc1ccc(CN(CCCl)CCCl)cc1Cl` was tested, and the activation was inactive: 0.7%.
`CC(C)c1ccc(NC2CCN(C(=O)OC(C)(C)C)CC2)cc1` was tested, and the activation was inactive: 8.2%.
For `O=C(NCC1(N2CCOCC2)CCCCC1)c1cc(F)c(F)cc1Cl`, the activation was inactive: 1%.
With `COc1cc(OC)c(C(=O)NCC2(N(C)C)CCCCC2)cc1OC` the activation was inactive: 0.7%.
For `O=C(NCC1(N2CCCCC2)CCCCC1)c1cccc(C(F)(F)F)c1`, the activation was inactive: 1.2%.
In the case of `CN1CCN(CCOC(=O)C(O)(c2ccccc2)c2ccccc2)CC1`, the activation is reported as inactive: 1.9%.
In the case of `COc1ccc(NC2CCN(C(=O)OC(C)(C)C)CC2)cc1`, the activation is reported as inactive: 0.9%.
With `CC(C)c1ccc(C(=O)NCC2(N3CCOCC3)CCCCC2)cc1` the activation was inactive: 1.9%.
For `COc1cc(C(=O)NCC2(N3CCCCC3)CCCCC2)ccc1OC(F)F`, the activation was inactive: 0.4%.
In the case of `O=C(NCC1(N2CCOCC2)CCCCC1)c1cc(=O)[nH]c2ccccc12`, the activation is reported as inactive: 0.2%.
`O=C(NCC1(N2CCCCC2)CCCCC1)c1ccc(OC(F)F)cc1` was tested, and the activation was inactive: -0.6%.
`CSc1ccc(C(=O)NCC2(N3CCOCC3)CCCCC2)cc1` was tested, and the activation was inactive: 1.1%.
In the case of `O=C(NCC1(N2CCCCC2)CCCCC1)c1cccc([N+](=O)[O-])c1`, the activation is reported as inactive: -0.4%.
With `N#CC1(Nc2ccccc2)CCN(CCc2ccccc2)CC1` the activation was inactive: -0.9%.
`CCN1CCC(Nc2ccc(Cl)cc2)CC1` was tested, and the activation was inactive: 2.1%.
`Cc1ccc(OCC(C)C)c(CN(CCCl)CCCl)c1` was tested, and the activation was inactive: 0.8%.
`CCOC(=O)N1CCC(Nc2cccc(C)c2)CC1` was tested, and the activation was inactive: 0.8%.
`CCOc1ccc(C)cc1CN(CCCl)CCCl` was tested, and the activation was inactive: 0.3%.
In the case of `COc1ccc(NC2CCN(CCc3ccccc3)CC2)c(OC)c1`, the activation is reported as inactive: -1.4%.
With `CCOC(=O)N1CCC(Nc2ccc(F)cc2)CC1` the activation was inactive: -0.9%.
For `O=C(NCC1(N2CCCCC2)CCCCC1)c1ccc(F)cc1`, the activation was inactive: 0.9%.
`CCCCOc1ccc(C(=O)NCC2(N3CCOCC3)CCCCC2)cc1` was tested, and the activation was inactive: 0.5%.
In the case of `O=C(NCC1(N2CCOCC2)CCCCC1)c1cc2ccccc2o1`, the activation is reported as inactive: -1.5%.
`Cc1cc(C)cc(N(C(=O)c2ccccc2)C2CCN(C(=O)OC(C)(C)C)CC2)c1` was tested, and the activation was inactive: 4.1%.
With `O=C(NCC1(N2CCCCC2)CCCCC1)c1ccc(Cl)nc1` the activation was inactive: -0.2%.
For `CCOC(=O)N1CCC(Nc2ccc(OC)cc2)CC1`, the activation was inactive: -1.3%.
In the case of `COc1ccc(Cl)cc1C(=O)NCC1(N2CCOCC2)CCCCC1`, the activation is reported as inactive: -0.2%.
`O=C(OC1CN2CCC1CC2)C1c2ccccc2Oc2ccccc21` (configuration not stated) was tested, and the activation was inactive: 2%.
`N#CC1(Nc2ccccc2)CCN(Cc2ccccc2)CC1` was tested, and the activation was inactive: -0.2%.
For `O=C(NCC1(N2CCCCC2)CCCCC1)c1ccc(Cl)s1`, the activation was inactive: -0.9%.
For `O=C(NCC1(N2CCCCC2)CCCCC1)c1cccs1`, the activation was inactive: -1.7%.
`O=C(NCC1(N2CCCCC2)CCCCC1)c1ccc(=O)[nH]c1` was tested, and the activation was inactive: -0.1%.
In the case of `COc1ccc(C(=O)NCC2(N3CCCCC3)CCCCC2)c(OC)c1OC`, the activation is reported as inactive: -0.3%.
`CC(C)(C)OC(=O)N1CCC(N(C(=O)c2ccccc2)c2ccc(F)cc2)CC1` was tested, and the activation was inactive: -0.4%.
With `COc1ccc(C(=O)NCC2(N3CCCCC3)CCCCC2)cc1` the activation was inactive: 0.2%.
In the case of `CSc1ccccc1C(=O)NCC1(N2CCCCC2)CCCCC1`, the activation is reported as inactive: 1.6%.
